These are literature values, as cited in patent publication US20110008439A1, “DULOXETIN COMPOSITION” (priority 2006, published 2011).

With `CNCC[C@H](Oc1cccc2ccccc12)c1cccs1.Cl` [Duloxetine hydrochloride, (+)-(S)-N-methyl-γ-(1-naphthyloxy)-2-thiophenepropylamine hydrochloride], the Solubility in water result is “slightly soluble in water”.
